Reference: patent US12091411B2, “IRAK degraders and uses thereof” (Kymera Therapeutics, Inc., priority 2022, dated 2024)

Protein sequences, listed by entry. Tags and fused reporters are not part of them.
UniProt Q9NWZ3, whole entry: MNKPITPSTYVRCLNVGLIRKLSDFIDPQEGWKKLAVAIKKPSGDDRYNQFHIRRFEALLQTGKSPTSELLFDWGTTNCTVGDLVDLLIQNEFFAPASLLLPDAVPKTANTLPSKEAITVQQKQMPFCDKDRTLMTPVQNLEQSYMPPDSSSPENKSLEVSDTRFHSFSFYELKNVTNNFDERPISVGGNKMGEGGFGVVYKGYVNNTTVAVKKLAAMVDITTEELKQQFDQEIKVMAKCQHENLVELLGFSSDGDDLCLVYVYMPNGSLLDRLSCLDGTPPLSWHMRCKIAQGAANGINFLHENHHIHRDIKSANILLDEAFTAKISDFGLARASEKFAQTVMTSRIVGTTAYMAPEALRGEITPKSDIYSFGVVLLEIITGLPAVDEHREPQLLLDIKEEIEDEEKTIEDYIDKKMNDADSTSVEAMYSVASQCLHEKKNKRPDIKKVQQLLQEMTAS

Target: IRAK4 (Homo sapiens, UniProt Q9NWZ3)
Experiment: IRAK4 MSD Degradation in OCI-LY10
Assay type: cell-based
[1] = read-out: IRAK4 degradation in OCI-LY10 at 4 hrs: DC50, OCI-LY10 cells, 4 hrs incubation
[2] = read-out: IRAK4 degradation in OCI-LY10 at 24 hrs: DC50, OCI-LY10 cells, 24 hrs incubation

Row | SMILES | DC50 [1] [µM] | DC50 [2] [µM]
1 | CN(C[C@H]1CC[C@H](n2cc(NC(=O)c3cnn4cccnc34)c(C(F)F)n2)CC1)C1CCN(c2cccc3c2n(C)c(=O)n3C2CCC(=O)NC2=O)CC1(F)F (some centres unmarked) [I-376] | > 0.2 | 0.01 to 0.1
2 | Cn1c(=O)n(C2CCC(=O)NC2=O)c2cccc(C#CCN3CCN(C[C@H]4CC[C@H](n5cc(NC(=O)c6cnn7ccc(N8CC8)nc67)c(C(F)F)n5)CC4)CC3)c21 (some centres unmarked) | 0.01 to 0.1 | 0.01 to 0.1
3 | O=C1CCN(c2cncc3c(C#CCN4CCN(C[C@H]5CC[C@H](n6cc(NC(=O)c7cnn8ccc(N9C[C@H]%10C[C@@H]9CO%10)nc78)c(C(F)F)n6)CC5)CC4)cccc23)C(=O)N1 | < 0.01 | < 0.01
4 | Cn1c(=O)n(C2CCC(=O)NC2=O)c2cccc([C@H]3C[C@H](C(=O)N4CCN(C[C@H]5CC[C@H](n6cc(NC(=O)c7cnn8ccc(N9C[C@H]%10C[C@@H]9CO%10)nc78)c(C(F)F)n6)CC5)CC4)C3)c21 (some centres unmarked) | > 0.2 | < 0.01

Read-outs that look alike come from different tables or passages of the source.
